Laboratory results: patent publication US9238131B2, “Ocular iontophoresis device” (priority 2005, dated 2016)

Details: rabbit, 40 mg/ml in water with no buffer, 2 mA-4 min
Text: The assignee made some comparative tests on rabbits done with a first iontophoresis device having cylindrical outer and inner walls (as known in the prior art) and a second iontophoresis device as shown in FIG. 7 (i.e. the inner wall 26 and outer wall 24 being tapered with the same inclination angle).
The two devices were designed for having the same: • application surface 2; • distance between the active electrode 10 and the application surface 2.
The area of the active electrode 30 of the second device was about three times more important than those of the first device.
For each comparative test, iontophoresis conditions were the same (2 mA-4 min).
After iontophoresis, rabbit ocular tissues were sampled. Tissues sampled included choroids and retina.
Concentrations of active substances 30 in these ocular tissues were then measured.

SMILES: C[C@@H]1C[C@H]2[C@@H]3CCC4=CC(=O)C=C[C@]4(C)[C@@]3(F)[C@@H](O)C[C@]2(C)[C@@]1(O)C(=O)COP(=O)([O-])[O-].[Na+].[Na+] [Dexamethasone Disodium Phosphate]
- Increase of tissue concentration, second device versus first device, retina: 3.4
